Hits are enriched below; roughly 3.7% of the tested compounds scored in any of these assays.
A549 tox – counter-screen for Nrf2 inhibitors: cytotoxicity in A549 cells. A549 ARE-Fluc cells, CellTiter-Fluor viability, 18-24 h. Potency, µM (top dose mostly 46 µM), for the others: at the highest dose activity change, negative = cytotoxicity, most hits filed as inhibitors. 390,000 compounds, 0.16% hits. AID 504648; note: potency is the fitted concentration of half-maximal effect; % is set by controls: 0 for no effect and ±100 for the full control effect
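A549 ARE_Fluc cells in 5% FBS OPTI-MEM were exposed to compounds in concentration-response for 18-24 h at 37 deg C. Viability was read by CellTiter-Fluor fluorescence (Ex 405/Em 525) after 30 min, before the luciferase read.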
Nrf2 activator – activates Nrf2 signaling | Potency, µM (doses to about 46.1 µM), inactives show at the top dose activation, actives largely listed as activators | AID 624171 | 410,000 compounds, 0.31% hits | AREc32 ARE-luciferase reporter (MCF7-derived line), luminescence, 24 h; note: potency is the fitted concentration of half-maximal effect; % of control where 0% means no effect; nearly all actives have a fitted effect of over 65% in size
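Luminescent ARE reporter assay in AREc32_Fluc cells: overnight plating at 37 deg C, 24 hr compound incubation, Steady-Glo added, 30 min RT before reading.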
IL2 activator – activators of IL-2; IL-2 activation reporter assay, cell-based qHTS; stimulated with anti-CD3/CD4/CD28 beads; in transgenic mouse T cells; activation, % (series mostly up to about 46 µM); 360,000 compounds, 0.065% hits; AID 652025; in the data active = activation above about 50%; inconclusive = mostly about 30% to 49%; note: 0% is about no effect
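Unstimulated transgenic mouse T cells, 750 per well, received compound and, after 60 minutes, anti-CD3/anti-CD4 bead plus anti-CD28 stimulation. EGFP and DsRed were quantified after 18 hours.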
Nrf2 inh – blocks Nrf2 signaling. A549 ARE-Fluc reporter, luciferase luminescence, 18-24 h. Potency, µM (doses to about 46 µM), for the others: at the top dose activity change, negative = inhibition, usual class: inhibitors. 360,000 compounds, 2.1% hits. AID 504444; note: potency is the fitted concentration of half-maximal effect; % is set by controls: 0 for no effect and ±100 for the full control effect; nearly all actives have a fitted effect of over 60% in size
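A549 ARE_Fluc cells (5000/well, 5% FBS OPTI-MEM) pre-incubated 2 h, then treated with compounds 18-24 h at 37C/5% CO2 in concentration-response. CellTiter-Fluor viability read first; BugLite luciferase luminescence after 15 min at room temperature gives Nrf2 activity.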
ClpP mod – qHTS Assay for Activators of ClpP; purified B. subtilis ClpP, FRET peptide cleavage, 20 min; Potency, µM (top dose mostly 57.5 µM), for the others: top-dose activity change, negative = active; 340,000 compounds, 1.9% hits; active = well fitted falling curve with a large enough effect; inconclusive = small, poorly fitted or top-dose-only effect; inactive = no such curve, though single readings can be large or run the other way; note: potency is the fitted concentration of half-maximal effect; the source files actives as falling curves though it sought activators and does not explain the sign; nearly all actives have a fitted effect of over 65% in size
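FRET quenching reversal measured ClpP activation: 10 microg/mL B. subtilis ClpP at pH 8 with the FRET-FV decapeptide, read at 430 nm after 320 nm excitation. The 20-min minus 0-min signal was scaled between DMSO/no-enzyme wells and ADEP (5.8 microM final).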
miR-21 reporter – miR-21 reporter, rising signal | AID 2288 | HeLa miR-21 FLuc reporter, luciferase, 48 h | 340,000 tested, under 10 active | Potency, µM (titrated, usually from 38.3 µM), for the others: at the top dose reporter change, positive = more light; active = well fitted rising curve with a large enough effect; inconclusive = small, poorly fitted or top-dose-only effect; inactive = no such curve, though single readings can be large or run the other way;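 also: % of control where 0% means no effect; miR-21 action dims this reporter so a rising signal means less miR-21 action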
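Luminescence from a firefly luciferase reporter carrying a miR-21 binding site downstream, stably expressed under a CMV promoter in HeLa cells that make miR-21 endogenously, reports miRNA modulation after 48 h compound exposure up to approximately 40uM final.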
* marks the source's active call; other numbers are inactive results; u = inconclusive; x = no result. Unless noted, calls come from the whole dose curve; as a rule, active = well fitted curve in the direction sought with a large enough effect; inconclusive = small, poorly fitted or top-dose-only effect, or another doubt; inactive = no such curve, though single readings can be large; an effect the other way counts as inactive or inconclusive.

entry | Compound | A549 tox | Nrf2 activator | IL2 activator | Nrf2 inh | ClpP mod | miR-21 reporter
1 | CN(C)c1ccc(NC(=O)COC(=O)Cn2nnc3ccccc32)cc1 | 6.0% | 0.3% | -2.7 | -17.1% | 25.1µM* | -9.8%
2 | O=C(CBr)c1ccc(Oc2ccc(C(=O)C[n+]3cccc(Br)c3)cc2)cc1 | x | x | x | x | 0.7% | x
3 | Cc1cccc(CNC(=O)c2cc3cc(S(=O)(=O)N4CCCCC4)ccc3n2C)c1 | 3.9% | 0.1% | x | x | u | 10.1%
4 | O=C(COc1ccccc1C(=O)Nc1cccc(F)c1)Nc1ccc(Br)cc1 | x | x | x | x | -4.2% | x
5 | COc1ccc(OC)c(NC(=O)C(C)n2nc(C)c3c(C)n(-c4ccccc4)nc3c2=O)c1 (stereo unspecified) | 6.8% | 4.6% | x | -13.9% | 1.9% | -2.6%
6 | COc1ccc(CNC(=O)C2(c3cccs3)CCOCC2)cc1 | -3.5% | -1.3% | x | x | 1.8% | -3.9%
7 | Cn1c(=O)c2[nH]c(Cc3cccc4ccccc34)nc2n(C)c1=O | -8.0% | 3.0% | 0.7 | 20.6µM* | x | x
8 | Cn1c(=O)c2[nH]c(COc3ccccc3)nc2n(C)c1=O | 22.1% | 2.5% | 2.0 | -20.0% | x | x
9 | Cc1ccccc1-n1c(CSC(=N)N)nc2ccccc2c1=O | -13.4% | -0.7% | -2.4 | 3.3% | 11.2µM* | -14.3%
10 | N=C(N)SCc1nc2ccccc2c(=O)n1-c1ccccc1Cl | -5.8% | 21.0% | 0.5 | u | u | -53.6%
11 | Cc1ccc(NS(=O)(=O)c2cc3c(cc2-c2ccccc2)NC(=O)CO3)cc1C | 2.6% | x | x | 2.1% | x | x
12 | COc1ccc(-c2cc(C(=O)Oc3ccc([N+](=O)[O-])cc3)c3ccccc3n2)cc1 | -9.2% | 0.2% | -2.7 | u | 28.2µM* | -9.8%
13 | COc1ccc(-c2cc(C(=O)OC3CCOC3=O)c3ccccc3n2)cc1 (stereo unspecified) | -10.8% | -0.1% | -1.5 | -0.1% | 25.1µM* | -4.7%
14 | O=C(OC1CCOC1=O)c1cc(-c2ccc(Br)cc2)nc2ccccc12 (stereo unspecified) | -13.5% | -0.3% | -0.9 | -12.7% | u | -5.7%
15 | COc1ccccc1CC(=O)Nc1cc(OC)c(NC(=O)c2ccccc2)cc1OC | -17.5% | 15.7% | -1.6 | 14.6µM* | x | 2.5%
16 | COc1ccccc1CC(=O)NC1CC(C)(C)NC(C)(C)C1 | -1.7% | 0.3% | 0.3 | 0.0% | 28.2µM* | 0.1%
17 | CC(=O)c1ccc(OCCNS(=O)(=O)c2ccc(-n3cnnn3)c(C)c2)cc1 | -7.6% | -0.1% | -3.4 | 5.8µM* | -2.1% | 12.3%
18 | COc1ccccc1CNC(=O)[C@H](C)N1C(=O)N2CCc3c([nH]c4ccccc34)[C@@]2(C)C1=O | u | 5.6% | -0.6 | 23.1µM* | -1.8% | 16.2%
19 | COc1ccc(CNC(=O)[C@H](C)N2C(=O)N3CCc4c([nH]c5ccc(OC)cc45)[C@@]3(C)C2=O)cc1 | -1.3% | 0.5% | -0.6 | -8.1% | 2.5% | 2.1%
20 | COc1ccc(CCNC(=O)[C@H](C)N2C(=O)N3CCc4c([nH]c5ccccc45)[C@@]3(C)C2=O)cc1OC | -17.7% | 3.5% | -0.7 | 16.4µM* | -4.4% | 20.4%
21 | COc1ccc(CCNC(=O)[C@H](C)N2C(=O)N3CCc4c([nH]c5ccccc45)[C@@]3(C)C2=O)cc1 | -11.6% | -1.3% | -4.2 | 14.6µM* | -2.0% | 23.4%
22 | COc1cccc(CNC(=O)[C@@H](C)N2C(=O)N3CCc4c([nH]c5ccc(OC)cc45)C3(C)C2=O)c1 (stereo partly specified) | 0.6% | 1.0% | 0.3 | -8.8% | 2.1% | 5.2%
23 | CC(C)CNc1nc2c(c(=O)n(C)c(=O)n2C)n1Cc1cccc(Br)c1 | -0.7% | -0.4% | -0.9 | x | -1.1% | -8.6%
24 | Cn1c(=O)c2sccc2n(Cc2cccc(Br)c2)c1=O | -0.6% | -0.2% | -1.9 | 10.3µM* | x | 3.1%
25 | CC(O)CNc1nc2c(c(=O)n(C)c(=O)n2C)n1Cc1cccc(Br)c1 (stereo unspecified) | -12.8% | 0.7% | -0.9 | 16.4µM* | -0.1% | 7.8%
26 | COCCNc1nc2c(c(=O)n(C)c(=O)n2C)n1Cc1cccc(C(F)(F)F)c1 | -19.9% | 0.5% | -0.2 | 16.4µM* | 0.4% | 8.7%
27 | COCCCn1c(=O)c2sccc2n(Cc2cccc(C)c2)c1=O | -0.8% | 0.3% | -0.1 | -18.4% | -3.1% | 2.5%
28 | CC(O)CNc1nc2c(c(=O)n(C)c(=O)n2C)n1C/C=C/c1ccccc1 (stereo unspecified) | -6.0% | 0.4% | 0.9 | 23.1µM* | -1.9% | 14.1%
29 | Cc1ccc2c(CC(=O)Nc3ccc(S(=O)(=O)N4CCCC(C)C4)cc3)coc2c1 (stereo unspecified) | -8.0% | 0.7% | x | 20.6µM* | -2.4% | -4.1%
30 | CN(C)S(=O)(=O)c1cccc(CSCc2cccc(S(=O)(=O)N(C)C)c2)c1 | 6.0% | -0.3% | -0.1 | 6.51µM* | x | 13.0%
31 | Cc1cc(C)n2nc(SCc3cccc(S(=O)(=O)N(C)C)c3)nc2n1 | -5.3% | u | -3.5 | -26.0% | 0.4% | -7.9%
32 | CC(C)CCOCC(=O)Oc1ccccc1C(=O)O | -9.1% | -0.2% | -0.1 | -5.7% | 28.2µM* | -6.7%
33 | COc1cccc(/C=C/c2nccc3ccccc23)c1OC | x | x | x | x | -17.7% | x
34 | O=C(NCC(c1cccnc1)N1CCc2ccccc2C1)C(=O)Nc1ccc(F)cc1F (stereo unspecified) | 6.9% | 0.2% | x | u | 1.1% | -10.8%
35 | O=c1c2sc3nc(N4CCOCC4)c4c(c3c2ncn1-c1ccccc1)CCCC4 | 10.8% | -0.5% | -0.5 | 13µM* | u | 8.7%
36 | Cc1ccc(-n2cnc3c(sc4nc(N5CCOCC5)c5c(c43)CCCC5)c2=O)cc1 | -0.6% | 0.2% | 0.8 | 9.9% | -8.0% | -2.2%
37 | COC(=O)c1ccc(Cn2cnc3c(sc4nc(N5CCOCC5)c5c(c43)CCCC5)c2=O)o1 | 1.9% | -0.8% | -0.4 | u | 28.2µM* | -19.7%
38 | Cc1ccccc1-n1cnc2c(sc3nc(N4CCOCC4)c4c(c32)CCCC4)c1=O | -17.2% | 0.1% | -1.2 | 20.6µM* | x | -9.6%
39 | O=C(NCCc1csc(-c2ccc(F)cc2)n1)c1cccs1 | u | 4.3% | x | x | -3.3% | 11.7%
40 | COc1ccc(OCCC(=O)OCC(=O)NC(=O)NC2CCCCC2)cc1 | 0.1% | 2.5% | 0.5 | 0.2% | 20µM* | 1.5%
41 | COc1ccc(OCCC(=O)OCC(=O)NC2CCCCC2)cc1 | -3.3% | 0.6% | 0.2 | -2.1% | 0.9% | x
42 | COc1cc(NC(=O)c2cc3c(s2)-c2ccccc2OC3)cc(OC)c1OC | -10.7% | -5.4% | x | 20.6µM* | -0.4% | u
43 | COc1ccc(OC)c(CCNC(=O)c2cc3c(s2)-c2c(C)cccc2OC3)c1 | 0.1% | 2.9% | x | -25.2% | 4.0% | -10.3%

Copied from the results shown (5 entries):
entry | Compound | A549 tox | Nrf2 activator | IL2 activator | Nrf2 inh | ClpP mod | miR-21 reporter
39 | O=C(NCCc1csc(-c2ccc(F)cc2)n1)c1cccs1 | u | 4.3% | x | x | -3.3% | 11.7%
40 | COc1ccc(OCCC(=O)OCC(=O)NC(=O)NC2CCCCC2)cc1 | 0.1% | 2.5% | 0.5 | 0.2% | 20µM* | 1.5%
41 | COc1ccc(OCCC(=O)OCC(=O)NC2CCCCC2)cc1 | -3.3% | 0.6% | 0.2 | -2.1% | 0.9% | x
42 | COc1cc(NC(=O)c2cc3c(s2)-c2ccccc2OC3)cc(OC)c1OC | -10.7% | -5.4% | x | 20.6µM* | -0.4% | u
43 | COc1ccc(OC)c(CCNC(=O)c2cc3c(s2)-c2c(C)cccc2OC3)c1 | 0.1% | 2.9% | x | -25.2% | 4.0% | -10.3%
